Screens: PubChem, National Center for Advancing Translational Sciences (NCATS)
ALDH1A1 block: blocks purified human ALDH1A1 activity; P00352; Purified ALDH1A1, NADH fluorescence, propionaldehyde substrate; Potency, µM (highest dose often 75.3 µM), without a hit: at the top dose activity, negative = inhibition, hits mostly inhibitors; hit rate 7.3% among 220,000; active = well fitted inhibition curve with a large enough effect, not every such curve was filed as active; inconclusive = small, poorly fitted or top-dose-only effect, or another doubt; inactive = no such curve, though single readings can be large or run the other way;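 also: potency is read from the fitted curve at half-maximal effect; plate controls were no enzyme wells and a reference inhibitor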
miR-21 reporter: miR-21 reporter, rising signal; HeLa miR-21 FLuc reporter, luciferase, 48 h; Potency, µM (highest dose often 38.3 µM), for the others: top-dose reporter change, positive = more light; 340,000 tested, under 10 active; AID 2288; active = well fitted rising curve with a large enough effect; inconclusive = small, poorly fitted or top-dose-only effect; inactive = no such curve, though single readings can be large or run the other way;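 further: % of control where 0% means no effect; miR-21 action dims this reporter so a rising signal means less miR-21 action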
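Luminescence from a firefly luciferase reporter carrying a miR-21 binding site downstream, stably expressed under a CMV promoter in HeLa cells that make miR-21 endogenously, reports miRNA modulation after 48 h compound exposure up to approximately 40uM final.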
Sfp PPTase inh: qHTS Assay for Inhibitors of Bacillus subtilis Sfp phosphopantetheinyl transferase (PPTase). Potency, µM, inactives show max response, negative = inhibition, most hits filed as inhibitors. Biochemical Sfp PPTase activity, qHTS. AID 1490, 2009. 4'-phosphopantetheinyl transferase ffp (Bacillus subtilis), Q9F4F7. hit rate 3.5% among 310,000; active = well fitted inhibition curve with a large enough effect; inconclusive = small, poorly fitted or top-dose-only effect, or another doubt; inactive = no such curve, though single readings can be large or run the other way;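 also: the enzyme is Sfp with the accession as filed and its product quenches rhodamine fluorescence; potency is read from the fitted curve at half-maximal effect; 0% = enzyme reaction without inhibitor and -100% = no enzyme wells; top concentration of the series not given in the record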
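Buffer: 50 mM Hepes-Na pH 7.6, 10 mM MgCl2, 0.01% Nonidet P-40, 0.01% BSA. Enzyme 15 nM, pre-exposed to compound 15 min; substrates then added and fluorescence change tracked over 30 min.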
KDM4E inh: JMJD2E (human) inhibition; B2RXH2; hit rate 1.6% among 230,000; JMJD2E catalytic domain, FDH-coupled NADH fluorescence (FDH is formaldehyde dehydrogenase); Potency, µM (highest dose often 57.1 µM), without a hit: top-dose activity change, negative = inhibition, most hits filed as inhibitors; active = well fitted inhibition curve with a large enough effect, not every such curve was filed as active; inconclusive = small, poorly fitted or top-dose-only effect, or another doubt; inactive = no such curve, though single readings can be large or run the other way;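 also: potency is read from the fitted curve at half-maximal effect; 0% = wells with enzyme and -100% = buffer wells without enzyme; nearly all actives have a fitted effect of over 50% in size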
Lamin A splicing: changes lamin A minigene splicing in HeLa cells; Potency, µM (top dose mostly 46.1 µM), for inactives: at the highest dose ratio change, negative = inhibition, actives largely listed as inhibitors; AID 1487; hit rate 0.01% among 200,000; HeLa LMNA splicing GFP/RFP minigene ratio, 48 h; active = well fitted inhibition curve with a large enough effect in the signal ratio, with a control signal flat, not every such curve was filed as active; inconclusive = small, poorly fitted or top-dose-only effect, or effect the other way, or a change in a side signal; the % refers to the signal ratio; also: potency is read from the fitted curve at half-maximal effect; % is scaled to controls: 0 for no effect and ±100 for the full control effect
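Read-out is the ratio of GFP to DsRed2 object intensity, acquired by 488 nm laser-scanning cytometry on HeLa lamin A-EGFP minigene reporter cells. Compound incubation 48 hrs at 37 °C in Opti-MEM with 2% FBS; DMSO 0.5% final.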
G9a inh: G9a (human) methyltransferase inhibition; Q96KQ7; G9a H3K9 monomethylation, AlphaScreen, 2 h; Potency, µM (top dose mostly 102 µM), without a hit: top-dose activity, negative = inhibition, hits mostly inhibitors; hit rate 8.8% among 350,000; also: potency is read from the fitted curve at half-maximal effect; % is scaled to controls: 0 for no effect and ±100 for the full control effect; nearly all actives have a fitted effect of over 75% in size
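Step 1: enzyme (final 20 nM) with compound, 15 min RT. Step 2: substrate peptide 500 nM and SAM 20 uM, 2 h RT. Step 3: anti-H3K9me1 antibody and AlphaScreen beads, 10 min, then plate read.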
Active calls of the source: *; ? = inconclusive; · = no result given; [ ] = another dose, or the depositor's remark. Hits are enriched below; roughly 13% of the tested compounds scored in any of these assays. Unless noted, calls follow the shape of the dose curve; as a rule, active = well fitted curve in the direction sought with a large enough effect; inconclusive = small, poorly fitted or top-dose-only effect, or another doubt; inactive = no such curve, though single readings can be large; an effect the other way counts as inactive or inconclusive.

entry	molecule	ALDH1A1 block	miR-21 reporter	Sfp PPTase inh
1	CC(Oc1cccc(Cl)c1)C(=O)Nc1ccc(S(=O)(=O)NC2=NCCCCC2)cc1 (stereo not given)	·	·	·
2	Cc1cccc(C(=O)N[C@H](C(=O)Nc2ccc(S(=O)(=O)NC3=NCCCCC3)cc2)C(C)C)c1	20µM*	1%	3%
3	CC1CN(S(=O)(=O)c2cccc(C(=O)Nc3ccc(S(=O)(=O)NC4=NCCCCC4)cc3)c2)CC(C)O1 (stereo not given)	·	·	·
4	CC(=O)c1[nH]c(C)c(C(=O)NCc2ccc(Cl)cc2)c1C	·	1%	·
5	Cc1ccc(C(=O)Nc2nnc(S(=O)(=O)N(C)Cc3ccc(Cl)cc3)s2)cc1	·	-1%	·
6	CCCn1c(/N=C/c2ccc3c(c2)OCO3)nc2ccccc21	14µM*	1%	8%
7	Cc1cc(=O)c2c(O)c3c(O)cc(O)c4c5c(O)cc(O)c6c(O)c7c(=O)cc(C)c8c1c2c(c34)c(c65)c78	-5%	·	50µM*
8	Cc1cc(O)c2c(c1O)C(=O)c1c(O)cc(C)c(O)c1C2=O	-8%	·	-5%
9	NS(=O)(=O)c1ccc2c(c1)C1C=CCC1C(C1CC=CCC1)N2 (stereo not given)	?	-1%	20µM*
10	CC(C)C1Nc2ccc(S(N)(=O)=O)cc2C2C=CCC21 (stereo not given)	20µM*	-3%	35µM*
11	CC(C)(C)C(C(=O)n1cccc1C#N)c1ccccc1 (stereo not given)	·	·	·
12	CN1CC(O)C2=CC(=O)C(=O)C=C21 (stereo not given)	-13%	·	5.6µM*

entry	KDM4E inh	Lamin A splicing	G9a inh
1	·	·	35µM*
2	-8%	-19%[46 µM]	?
3	·	·	18µM*
4	·	-2%[46 µM]	3%[59 µM]
5	·	·	10%[59 µM]
6	?	5%	-12%[2.33 µM]
7	·	·	8.9µM*
8	?	·	-35%[2.33 µM]
9	?	13%	?
10	-26%	9%	1.4µM*
11	·	·	4%[2.33 µM]
12	·	·	?

(listing goes on)
entry	molecule	ALDH1A1 block	miR-21 reporter	Sfp PPTase inh
13	O=C(COC(=O)c1cc(F)cc(F)c1)NCCCc1ccccc1	·	2%	2%
14	COc1ccc(NC(=O)N/C=C/c2ccco2)cc1	28µM*	-5%	50µM*
15	O=C(N/C=C/c1ccco1)Nc1cccc(Cl)c1	-6%	-11%	4%
16	Cc1ccc(/C=N/N2CCN(Cc3ccc(Cl)cc3)CC2)o1	7.9µM*	9%	25µM*
17	Clc1ccc(CN2CCN(/N=C/c3ccco3)CC2)cc1	?	-3%	3%
18	NC(=S)Nc1cccc(-c2n[nH]c(=S)o2)c1	·	-1%	-9%
19	Cc1ccc(NC(=S)Nc2cc(C)on2)cc1	·	-52%	1%
20	Cc1ccc(NC(=S)Nc2cccc(-c3n[nH]c(=S)o3)c2)cc1	·	-21%	50µM*
21	O=C(N/C(=C\c1ccc(Br)cc1)C(=O)N1CCOCC1)c1ccc([N+](=O)[O-])cc1	·	-12%	18%
22	Cc1ccc(C(=O)OCC(=O)NCc2ccco2)s1	-12%	0%	45µM*
23	O=C(COC(=O)CCC(=O)c1ccc(Cl)cc1)NCc1ccco1	?	2%	14µM*
24	CC(C)(Oc1ccc(Cl)cc1)C(=O)NCc1ccco1	13µM*	-1%	-7%

entry	KDM4E inh	Lamin A splicing	G9a inh
13	·	·	11%[2.33 µM]
14	-4%	·	10µM*
15	-15%	·	50µM*
16	6%	7%	50µM*
17	-3%	·	50µM*
18	?	·	40µM*
19	7%	·	·
20	?	·	50µM*
21	·	·	23%
22	-2%	-1%[46 µM]	79µM*
23	-7%	·	50µM*
24	-2%	3%	?

Further entries:
entry	molecule	ALDH1A1 block	miR-21 reporter	Sfp PPTase inh
25	O=C(COC(=O)CCC(=O)c1ccc(Cl)cc1)NCCc1ccccc1	2%	5%	-22%
26	Cc1cc(C)cc(OCC(=O)OCC(=O)NCc2ccco2)c1	35µM*	-1%	-4%
27	O=C(c1sc2cc(Cl)ccc2c1Cl)N1CCN(CCc2ccccn2)CC1	·	-1%	-13%
28	CCC1CC=CC2C1C(=O)N(Cc1ccccc1)C2c1cccc([N+](=O)[O-])c1 (stereo not given)	·	·	-26%
29	CCN1c2ccccc2-n2cccc2C12CCN(C(=O)Nc1ccccc1Br)CC2	·	-1%	·
30	CCn1c(SCc2ccc(Cl)cc2)nc2nc3c(cc2c1=O)CCCC3	13µM*	-8%	?
31	CSc1nc2sc3c(c2c(=O)n1-c1ccccc1C)CCCC3	·	14%	·
32	CSc1nc2nc3c(cc2c(=O)n1-c1ccccc1C)CCCC3	·	27%	-4%
33	COc1ccc(CCNC(=O)CCCCn2c(=O)c3ccccc3n(Cc3ccc(F)cc3Cl)c2=O)cc1OC	·	-6%	·
34	O=C(N/N=C/c1ccc(N2CCOCC2)o1)c1cccc(F)c1	?	-40%	8.9µM*
35	COc1ccc(C(=O)N/N=C/c2ccc(N3CCOCC3)o2)cc1OC	?	-2%	3.5µM*
36	COc1ccc(-n2c(=O)c(CCc3ccccc3)nc3cncnc32)cc1	?	·	10%

entry	KDM4E inh	Lamin A splicing	G9a inh
25	2%	-9%[46 µM]	?
26	5%	0%	2%
27	·	·	-20%
28	·	·	·
29	·	?	-28%[59 µM]
30	0%	-13%	5%[59 µM]
31	·	?	-25%[59 µM]
32	-22%	·	7.1µM*
33	·	·	-4%[59 µM]
34	?	-8%	7.1µM*
35	-26%	·	8.9µM*
36	·	-8%	7%[0.501 µM]

Whole records as entered above:
`Cc1cc(C)cc(OCC(=O)OCC(=O)NCc2ccco2)c1` is entered as ALDH1A1 block = 35µM*; miR-21 reporter = -1%; Sfp PPTase inh = -4%; KDM4E inh = 5%; Lamin A splicing = 0%; G9a inh = 2%
`CCC1CC=CC2C1C(=O)N(Cc1ccccc1)C2c1cccc([N+](=O)[O-])c1` (stereo not given) is entered as ALDH1A1 block = ·; miR-21 reporter = ·; Sfp PPTase inh = -26%; KDM4E inh = ·; Lamin A splicing = ·; G9a inh = ·

Continuation.
entry	molecule	ALDH1A1 block	miR-21 reporter	Sfp PPTase inh
37	CN1CC(c2ccccn2)C2(SC(=S)N(Cc3ccccc3)C2=O)C12C(=O)Nc1ccccc12 (stereo not given)	25µM*	19%	-31%
38	COCC(C)NCc1ccc(C)cc1C (stereo not given)	?	-4%	-26%
39	O=C1CCCc2cc(S(=O)(=O)NCC3CCC(C(=O)Nc4ccc(Cl)cc4)CC3)ccc2N1 (stereo not given)	·	13%	·
40	O=C1CCCC2=C1C(c1ccco1)Nc1ccc(C(=O)c3ccccc3)cc1N2 (stereo not given)	20µM*	19%	-22%
41	O=C1CCCC2=C1C(c1ccccn1)Nc1ccc(C(=O)c3ccccc3)cc1N2 (stereo not given)	-11%	8%	7%
42	CCN=c1sc(C(=O)NCCc2ccccc2)cc(=O)n1CC	6.3µM*	12%	56µM*
43	Cc1cccn2c(=O)c3cc(C(=O)NCCN4CCOCC4)c(=N)n(CCc4ccccc4)c3nc12	?	2%	-5%
44	Cc1cccn2c(=O)c3cc(C(=O)NC4CCCCC4)c(=N)n(Cc4ccccc4)c3nc12	·	0%	28µM*
45	CCCCNC(=O)c1cc2c(=O)n3cccc(C)c3nc2n1C	?	-9%	16%
46	Cc1cccn2c(=O)c3cc(C(=O)NCCN4CCOCC4)c(=N)n(CCCN4CCOCC4)c3nc12	·	-1%	21%
47	Cc1cccn2c(=O)c3cc(C(=O)NCCc4ccccc4)c(=N)n(CCCn4ccnc4)c3nc12	5.6µM*	10%	9%

entry	KDM4E inh	Lamin A splicing	G9a inh
37	-10%	?	·
38	?	-13%	11µM*
39	·	5%[46 µM]	-16%[59 µM]
40	-24%	-11%	-6%[59 µM]
41	8%	-22%	5%[59 µM]
42	6%	?	?
43	?	-6%	?
44	·	·	10µM*
45	?	-14%	2%
46	·	·	50µM*
47	4%	-14%	?

Reformatted: 2 of the compounds above
entry | ALDH1A1 block | miR-21 reporter | Sfp PPTase inh | KDM4E inh | Lamin A splicing | G9a inh | canonical_smiles
44 | · | 0% | 28µM* | · | · | 10µM* | Cc1cccn2c(=O)c3cc(C(=O)NC4CCCCC4)c(=N)n(Cc4ccccc4)c3nc12
43 | ? | 2% | -5% | ? | -6% | ? | Cc1cccn2c(=O)c3cc(C(=O)NCCN4CCOCC4)c(=N)n(CCc4ccccc4)c3nc12
